Measured values: ChEMBL document CHEMBL4428029, “Notch Antagonists: Potential Modulators of Cancer and Inflammatory Diseases” (J Med Chem, 2016)

Organism: Homo sapiens
Test: Selectivity ratio of IC50 for gamma secretase (unknown origin) mediated Notch M1726V mutant activation in CHO K1 cells to gamma secretase (unknown origin) mediated APP cleavage in CHO cells expressing APP Swedish KM/NL mutant
Type: cell-based

## O=S(=O)(N[C@H](CO)C(C(F)(F)F)C(F)(F)F)c1ccc(Cl)s1 [BEGACESTAT]
  Ratio IC50: 16
